In the assay the target is human NR1/NR2A (Homo sapiens (Human), UniProt Q05586+Q12879). The experiment in a line: NR2A antagonist activity: calcium influx (Fluo-4) assay in HEK293 cells. Type of assay: cell-based. The method, then:
Activation of the NR2A or NR2B subtype of NMDA receptor with glutamate as an agonist and glycine co-agonist on these cells results in calcium influx, which can be monitored with fluorescent indicator Fluo-4.
For experiments, the cells were seeded onto poly-D-lysine-coated 96-well black plates with clear bottom (Corning) at a density of ˜50,000 cells/well. After overnight culture, the growth medium was removed from the wells and the cells were incubated at 37° C. for 60 minutes in Hanks buffer containing 4 μM fluo-4-AM (Invitrogen) and 0.1% bovine serum albumin (BSA). […] The cell plates were placed onto an FDSS Cell fluorescence reader (Hamamatsu). After 20 seconds of reading background fluorescence, agonist glutamate at final 100 µM and co-agonist glycine at final 50 μM were added to the cells to activate the receptor, and the resulting fluorescence changes were recorded and quantified. Based on the changes in fluorescence intensity, the pharmacological effect of test compounds was analyzed and the IC50 values derived from a non-linear least squares fitting of the concentration-dependent response to a standard logistic equation using Prism (Graphpad Software, Inc.): Amplitude=Max Amplitude/(1+(IC50/[antagonist])^n).

The chains behind the UniProt entries cited, without tags or fusion partners. Residues count along the entry.
UniProt Q12879, 23-1464: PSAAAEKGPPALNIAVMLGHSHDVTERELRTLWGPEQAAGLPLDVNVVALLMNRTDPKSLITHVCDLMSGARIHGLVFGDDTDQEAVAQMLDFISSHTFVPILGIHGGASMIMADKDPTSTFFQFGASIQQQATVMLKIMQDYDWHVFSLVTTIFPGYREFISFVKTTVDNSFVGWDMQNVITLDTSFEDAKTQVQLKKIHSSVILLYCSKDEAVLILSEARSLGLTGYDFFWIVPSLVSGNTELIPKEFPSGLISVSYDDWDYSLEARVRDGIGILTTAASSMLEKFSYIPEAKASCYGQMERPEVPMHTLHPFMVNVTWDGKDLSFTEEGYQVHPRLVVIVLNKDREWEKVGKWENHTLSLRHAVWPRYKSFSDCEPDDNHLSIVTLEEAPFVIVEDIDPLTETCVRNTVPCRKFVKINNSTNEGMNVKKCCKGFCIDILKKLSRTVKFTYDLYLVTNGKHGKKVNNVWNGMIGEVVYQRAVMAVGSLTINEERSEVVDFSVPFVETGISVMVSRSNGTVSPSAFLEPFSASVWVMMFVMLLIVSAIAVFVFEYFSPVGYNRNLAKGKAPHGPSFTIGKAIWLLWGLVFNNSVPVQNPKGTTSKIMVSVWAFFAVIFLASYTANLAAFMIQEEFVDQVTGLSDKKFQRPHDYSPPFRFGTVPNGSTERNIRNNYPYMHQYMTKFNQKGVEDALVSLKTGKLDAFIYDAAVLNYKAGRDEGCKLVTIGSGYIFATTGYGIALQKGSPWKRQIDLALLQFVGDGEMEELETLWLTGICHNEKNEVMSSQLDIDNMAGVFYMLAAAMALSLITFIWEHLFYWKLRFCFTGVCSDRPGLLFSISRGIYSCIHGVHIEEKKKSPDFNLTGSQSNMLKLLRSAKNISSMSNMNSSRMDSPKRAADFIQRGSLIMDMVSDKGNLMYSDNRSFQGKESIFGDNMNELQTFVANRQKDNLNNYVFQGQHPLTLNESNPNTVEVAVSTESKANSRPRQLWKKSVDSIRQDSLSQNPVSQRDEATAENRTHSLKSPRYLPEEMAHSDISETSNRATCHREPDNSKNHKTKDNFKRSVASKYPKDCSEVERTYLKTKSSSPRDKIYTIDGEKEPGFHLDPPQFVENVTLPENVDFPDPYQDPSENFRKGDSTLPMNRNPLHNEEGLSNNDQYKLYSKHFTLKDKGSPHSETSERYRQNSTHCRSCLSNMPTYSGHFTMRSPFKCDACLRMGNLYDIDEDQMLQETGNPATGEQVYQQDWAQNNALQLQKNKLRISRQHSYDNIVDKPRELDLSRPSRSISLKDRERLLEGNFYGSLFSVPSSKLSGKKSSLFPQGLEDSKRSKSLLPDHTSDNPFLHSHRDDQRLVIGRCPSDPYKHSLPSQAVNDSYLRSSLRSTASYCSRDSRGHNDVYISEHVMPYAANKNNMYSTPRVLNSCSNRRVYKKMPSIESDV

Consider `FC(F)(F)c1ccc(C(F)(F)CN2CCC(Nc3ncnc4[nH]ccc34)CC2)cn1` [C-127^A′], for which the IC50 was more than 10 µM.

Values taken from US11752155B2, “Treatment of autism spectrum disorders, obsessive-compulsive disorder and anxiety disorders” (Rugen Holdings (Cayman) Limited, priority 2016, dated 2023).
